Test results as given in ChEMBL document CHEMBL2401719, “The development of a new class of inhibitors for betaine-homocysteine S-methyltransferase” (Eur J Med Chem, 2013).

Molecular target: T1, Betaine--homocysteine S-methyltransferase 1 (Homo sapiens, UniProt Q93088)
T1 sequence (Q93088 whole entry): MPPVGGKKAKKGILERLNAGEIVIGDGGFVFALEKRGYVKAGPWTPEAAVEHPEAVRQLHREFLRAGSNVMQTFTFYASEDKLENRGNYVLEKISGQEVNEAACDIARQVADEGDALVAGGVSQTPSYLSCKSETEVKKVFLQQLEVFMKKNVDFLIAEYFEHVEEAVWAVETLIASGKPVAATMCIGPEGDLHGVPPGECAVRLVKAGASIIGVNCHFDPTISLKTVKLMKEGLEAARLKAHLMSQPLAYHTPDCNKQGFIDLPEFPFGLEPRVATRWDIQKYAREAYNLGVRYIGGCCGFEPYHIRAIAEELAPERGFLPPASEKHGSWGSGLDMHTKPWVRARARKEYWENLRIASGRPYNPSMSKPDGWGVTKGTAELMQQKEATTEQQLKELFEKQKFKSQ
Assay: Inhibition of human recombinant BHMT using N-methyl-[14C]-betaine/D,L-homocysteine as substrate after 30 mins by scintiillation counting analysis
Procedure, shortened: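 Human recombinant BHMT assayed in pH 7.5 buffer with 2 mM betaine and 1 mM D,L-homocysteine. Each IC50 data point was run in duplicate. IC50 values came from three separate assays and are given ± SEM, n = 3.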

IC50: 93 nM
Structure (SMILES): NC(CCSCCCCC(=O)O)C(=O)O (racemic)
